Measurements published in patent US11786503B2, “Pharmaceutical compositions and methods for countering chemotherapy induced cardiotoxicity” (Auransa Inc., priority 2016, dated 2023).

Key:
[1] = system: Doxorubicin treated human iPSC-derived cardiomyocytes; experiment: iPSC-CM protection by myricetin analogs (Table 1); assay type: cell-based; details: read-out: iPSC-CM protection Max Effect (%), class symbol
[2] = system: Human iPSC-derived cardiomyocytes; experiment: DOX-induced DNA double strand break, γH2AX immunostaining; assay type: cell-based
[3] = system: cardiomyocytes differentiated from induced pluripotent stem cells; experiment: long-term mitochondrial health, TMRM, 7 days (Example 19); assay type: cell-based, human

| SMILES | Emax [1] [%] | protection against DOX-induced double strand break (γH2AX-positive cells) [2] | mitochondrial toxicity (decrease in TMRM-positive cells) vs mock-treated [3] |
| --- | --- | --- | --- |
| O=c1c(O)c(-c2ccccc2)oc2cc(O)ccc12 [Compound 20, 3,7-dihydroxyflavone] | < 30 | – | – |
| C[C@@H](CN1CC(=O)NC(=O)C1)N1CC(=O)NC(=O)C1 [dexrazoxane] | – | little or no protection | increase in mitochondrial toxicity |
